Earlier results, collected in article PMC4416786, “Validation of a P-Glycoprotein (P-gp) Humanized Mouse Model by Integrating Selective Absolute Quantification of Human MDR1, Mouse Mdr1a and Mdr1b Protein Expressions with In Vivo Functional Analysis for Blood-Brain Barrier Transport” (PLoS ONE, 2015).

Tested on: P-gp
Parameters: method as in PMID 19047468
Conditions: PET imaging; cited from earlier work

In the case of `[11CH3]Oc1ccc(-n2nnnc2C(F)(F)F)cc1CN[C@H]1CCCN[C@H]1c1ccccc1` [[11C]GR205171], the “Brain penetration in humans relative to rodents” value is listed as 8.6 times.
